Measured values as given in BindingDB's records for PubMed 7520908 (Janssen Research Foundation, 1994).

Chains of the proteins cited; added tags and fusions are not shown.
UniProt P18901, whole entry: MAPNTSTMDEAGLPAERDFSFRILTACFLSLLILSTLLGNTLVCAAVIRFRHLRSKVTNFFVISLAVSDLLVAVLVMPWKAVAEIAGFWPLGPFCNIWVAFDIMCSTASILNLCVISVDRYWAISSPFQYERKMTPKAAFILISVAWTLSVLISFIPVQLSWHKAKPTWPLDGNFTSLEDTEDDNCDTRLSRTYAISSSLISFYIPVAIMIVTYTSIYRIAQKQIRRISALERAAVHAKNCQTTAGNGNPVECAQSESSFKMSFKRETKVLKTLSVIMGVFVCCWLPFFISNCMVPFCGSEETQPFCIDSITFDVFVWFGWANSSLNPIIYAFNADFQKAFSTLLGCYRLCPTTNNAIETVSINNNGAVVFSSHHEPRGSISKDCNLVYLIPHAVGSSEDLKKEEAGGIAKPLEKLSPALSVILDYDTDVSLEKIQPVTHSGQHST

Target: D(1A) dopamine receptor (Rattus norvegicus, UniProt P18901)

`Cc1nc2n(c(=O)c1CCN1CCC(c3noc4cc(F)ccc34)CC1)CCCC2` [3-{2-[4-(6-Fluoro-benzo[d]isoxazol-3-yl)-piperidin-1-yl]-ethyl}-2-methyl-6,7,8,9-tetrahydro-pyrido[1,2-a]pyrimidin-4-one(risperidone)] showed a Ki greater than 10 µM.
